Test results reported in PubChem BioAssay AID588354 (The Scripps Research Institute Molecular Screening Center, 2011).
This is a selection; strong and weak results do not stand in their true shares. Active and inactive are the calls of the source.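 Rule for the calls: active = inhibition above the campaign mean plus 3 SD, with each screening campaign given its own cutoff (cut at about 60% in these data); inactive = the rest.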

Amino acid sequences for entries named in this document (tags omitted).
UniProt Q15788, whole entry: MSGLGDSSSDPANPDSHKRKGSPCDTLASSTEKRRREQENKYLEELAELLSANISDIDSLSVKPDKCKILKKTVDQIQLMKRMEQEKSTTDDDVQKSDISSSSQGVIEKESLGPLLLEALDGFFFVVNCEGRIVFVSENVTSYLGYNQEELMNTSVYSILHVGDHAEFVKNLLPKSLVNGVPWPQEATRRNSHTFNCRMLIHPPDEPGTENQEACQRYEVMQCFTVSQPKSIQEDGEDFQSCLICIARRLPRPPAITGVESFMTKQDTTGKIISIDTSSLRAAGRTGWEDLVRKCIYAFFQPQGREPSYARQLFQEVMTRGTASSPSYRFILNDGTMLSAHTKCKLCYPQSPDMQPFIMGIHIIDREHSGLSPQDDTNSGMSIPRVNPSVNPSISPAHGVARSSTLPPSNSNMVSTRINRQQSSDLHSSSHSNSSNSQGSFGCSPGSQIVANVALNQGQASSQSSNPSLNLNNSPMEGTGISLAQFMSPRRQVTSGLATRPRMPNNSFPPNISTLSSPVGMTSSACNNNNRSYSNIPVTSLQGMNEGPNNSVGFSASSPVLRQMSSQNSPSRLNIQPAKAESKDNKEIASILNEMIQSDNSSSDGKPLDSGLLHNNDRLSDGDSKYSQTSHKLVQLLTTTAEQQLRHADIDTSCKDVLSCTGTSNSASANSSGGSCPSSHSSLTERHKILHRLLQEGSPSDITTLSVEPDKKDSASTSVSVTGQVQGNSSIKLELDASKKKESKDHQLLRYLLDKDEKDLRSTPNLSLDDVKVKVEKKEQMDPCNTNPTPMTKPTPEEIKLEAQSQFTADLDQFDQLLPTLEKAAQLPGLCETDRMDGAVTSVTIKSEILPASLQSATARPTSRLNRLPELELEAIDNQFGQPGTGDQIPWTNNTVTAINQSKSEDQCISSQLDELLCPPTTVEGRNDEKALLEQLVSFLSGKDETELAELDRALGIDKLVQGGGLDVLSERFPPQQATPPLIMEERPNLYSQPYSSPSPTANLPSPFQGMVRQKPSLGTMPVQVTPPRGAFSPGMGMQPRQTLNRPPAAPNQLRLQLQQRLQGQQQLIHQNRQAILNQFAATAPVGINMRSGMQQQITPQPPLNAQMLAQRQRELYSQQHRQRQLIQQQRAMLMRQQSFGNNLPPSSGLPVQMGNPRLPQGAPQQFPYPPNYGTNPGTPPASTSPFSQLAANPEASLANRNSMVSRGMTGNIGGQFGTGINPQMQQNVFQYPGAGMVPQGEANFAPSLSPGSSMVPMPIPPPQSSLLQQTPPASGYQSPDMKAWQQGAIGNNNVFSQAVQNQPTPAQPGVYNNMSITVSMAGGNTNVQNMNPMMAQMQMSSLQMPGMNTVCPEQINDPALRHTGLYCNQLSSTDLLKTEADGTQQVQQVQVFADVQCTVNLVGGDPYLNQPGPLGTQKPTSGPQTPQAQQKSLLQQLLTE

The compounds below were run against Nuclear receptor coactivator 1 (Homo sapiens) (UniProt Q15788) (assay: NCOA1 GAL4-fusion reporter inhibition – cell-based, luminescence, primary screen (AID 588354;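 note: 0% = DMSO treated cells and 100% = gossypol at 36 µM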)). Settings: HEK293 GAL4-SRC1 luciferase reporter, at 3.6 µM, hits give high values.

SMILES | inhibition
CCC(=O)N(c1ccccc1)C1(COC)CCN(CCc2cccs2)CC1 | inactive: -5.54%
CCC(=O)N(c1ccccc1)C1(COC)CCN(CCn2nnn(CC)c2=O)CC1 | inactive: 5.77%
